This is an account of results in patent US20250059174A1, “Pharmaceutical Compounds and Compositions as C-Kit Kinase Inhibitors” (Enanta Pharmaceuticals, Inc., priority 2023, published 2025).

The chains behind the UniProt entries cited, without tags or fusion partners. Residues count along the entry.
UniProt P10721, 26-976: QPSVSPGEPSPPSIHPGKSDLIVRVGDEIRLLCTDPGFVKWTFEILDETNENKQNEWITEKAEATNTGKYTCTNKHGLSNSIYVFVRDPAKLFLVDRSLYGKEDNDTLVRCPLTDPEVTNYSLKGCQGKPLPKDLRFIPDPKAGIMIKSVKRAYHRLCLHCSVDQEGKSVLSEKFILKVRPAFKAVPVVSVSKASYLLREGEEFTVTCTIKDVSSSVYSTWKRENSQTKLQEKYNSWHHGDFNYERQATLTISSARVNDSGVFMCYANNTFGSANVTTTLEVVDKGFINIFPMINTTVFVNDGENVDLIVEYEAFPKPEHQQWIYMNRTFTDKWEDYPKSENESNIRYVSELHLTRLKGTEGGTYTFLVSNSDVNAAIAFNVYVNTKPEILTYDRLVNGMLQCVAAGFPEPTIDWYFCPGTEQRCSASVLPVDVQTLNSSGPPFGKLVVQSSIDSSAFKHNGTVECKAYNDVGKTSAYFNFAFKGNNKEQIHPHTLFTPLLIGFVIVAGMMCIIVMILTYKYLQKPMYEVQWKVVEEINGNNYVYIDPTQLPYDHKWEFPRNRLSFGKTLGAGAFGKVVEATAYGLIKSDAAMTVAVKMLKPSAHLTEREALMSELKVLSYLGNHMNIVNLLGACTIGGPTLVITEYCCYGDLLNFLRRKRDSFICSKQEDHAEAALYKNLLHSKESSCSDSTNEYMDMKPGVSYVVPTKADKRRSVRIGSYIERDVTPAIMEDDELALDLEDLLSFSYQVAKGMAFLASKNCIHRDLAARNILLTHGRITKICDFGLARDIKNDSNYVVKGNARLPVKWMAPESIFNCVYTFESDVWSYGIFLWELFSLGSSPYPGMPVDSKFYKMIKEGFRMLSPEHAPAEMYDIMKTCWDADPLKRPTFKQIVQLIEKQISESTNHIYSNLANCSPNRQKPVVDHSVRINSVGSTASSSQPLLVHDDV

The test has as its target Recombinant human c-KIT kinase (Homo sapiens (Human), UniProt P10721). The experiment in a line: c-KIT kinase chemiluminescence assay (ADP-Glo). The format is biochemical. On the procedure:
The c-KIT Kinase Enzyme System (V4498) and ADP-Glo™ Kinase Assay kit (V6930) were purchased from Promega (Madison, WI). DMSO (D2650) was purchased from Sigma-Aldrich (Burlington, MA).
Kinase Reaction: The kinase assay was based on the recommended protocol by c-KIT Kinase Enzyme System from Promega. Recombinant human c-KIT kinase in 3 μL of assay buffer (40 mM Tris pH 7.5, 20 mM MgCl2, 0.1 mg/mL BSA and 50 μM DTT) was added to the test or high control wells and 3 μL of assay buffer was added to the low control wells. The microplate was centrifuged at 800 rotations per minute (rpm) for 60 s and incubated at room temperature (RT) for 30 min. Next, 2 μL of buffered ATP and polyEY substrate solution was added to all wells. The microplate was centrifuged at 800 rpm for 60 s and incubated at RT for 2 h.
ADP detection with ADP-Glo™ Kinase Assay: After the kinase reaction incubation, 5 μL of ADP-Glo™ reagent was added to all wells. The microplate was centrifuged at 800 rpm for 60 s and incubated at RT for 40 min. Ten microliter (10 μL) of Kinase Detection Reagent (Luciferin-Luciferase system) was then added to all wells. The microplate was centrifuged at 800 rpm for 60 s and incubated at RT for 60 min. Kinase activity was measured as increase in luminescence at RT in an Envision plate reader equipped with 560 nm filters and operating in endpoint mode. […]

As for `Cc1ccc(-c2noc([C@H]3C[C@@H]3F)n2)cc1NC(=O)c1cnc(-c2cnc3c(cnn3C3CCCCO3)c2)o1` (stereo partly shown) [Example 375], the IC50 lay in the range of 100 to 1000 nM.
